Measured values reported in US7135615B2, “Chromosome doubling method” (The Curators of the University of Missouri, priority 2001, dated 2006).

Test system: maize haploid seedlings of origin Oh43
Assay: doubled haploid production trial, Oh43 haploids (Example 4)
Settings: second study, out of 50 treated Oh43 haploid seedlings
Procedure: Ten to nineteen plants were treated for each plot. Self pollinations were conducted on these treated haploids if there were fertile sectors on the tassel. Pollen grains were collected carefully on a sheet of paper and transferred to the silks repeatedly. Silks and husks were cut back prior to pollination in order to permit maximum seed set. The numbers of fertile tassel and ear sectors, as well as the numbers of anthers and selfed kernels were recorded. Statistical analyses were as described above.

[N-]=[N+]=O [nitrous oxide gas, nitrous oxide]
treated seedlings died from fungus attack: fourteen
